Patent publication EP2966079B1, “PYRIDOPYRIMIDINE OR PYRIMIDOPYRIMIDINE COMPOUND, PREPARATION METHOD, PHARMACEUTICAL COMPOSITION AND USE THEREOF” (Shanghai Institute of Materia Medica, Chinese Academy of …, priority 2013, dated 2014)

What was measured:
[1] = system: human brain glioma U87MG; experiment: Cell proliferation assay (MTS method), U87MG; assay type: cell-based; conditions: U-87 MG, 72 h, read-out: U87MG IC50 (µM)
Procedure: (§1) Cell proliferation assay was based on two types of cell lines, i.e., human brain glioma U87MG and human prostate cancer LNCap, both of which were from ATCC. U87MG and LNCap contain PTEN gene deletion, and belongs to mTOR signal-dependent tumor cells. Cell culture media and related reagents were from GIBCO. U87MG cells were cultured in a MEM complete medium (containing 10% fetal bovine serum, 100 U/mL penicillin and 100 µg/mL streptomycin). […] Cells/compound was cultured for 3 days, and MTS method was used to test cell proliferation. MTS and PMS were purchased from Sigma company, a stock solution of MTS/PMS (20:1) was added into the test cells with 20 µL/well. After a suitable time of incubation, the proliferation assay results was recorded on a 96 well plate microplate reader. Relative cell viability% = (A490valueofadministeredgroup−lightvalueoftheblankgroup)/(lightvalueofDMSOgroup−lightvalueofblankgroup) × 100%. [formula]
(§2) The experimental data were processed with Microsoft Office Excel and Graphpad PRISM 5 to calculate IC50.

[2] = system: human prostate cancer LNCap; experiment: Cell proliferation assay (MTS method), LNCap; assay type: cell-based; conditions: 72 h, read-out: LNCap IC50 (µM)
Procedure: as §1, §2

SMILES | IC50 [1] | IC50 [2]
COc1ccc(-c2ccc3c(N4C5CCC4COC5)nc(N4C5CCC4COC5)nc3n2)cc1CO [Compound 1, 5-(2,4-di(3-oxa-8-azabicyclo[3.2.1]octan-8-yl)pyrido[2,3-d]pyrimidin-7-yl)-2-methoxyphenylmethanol] | 0.33 µM | < 0.027 µM
COc1ccc(-c2ccc3c(N4CC5CCC(C4)O5)nc(N4CC5CCC(C4)O5)nc3n2)cc1CO [Compound 2, 5-(2,4-di(8-oxa-3-azabicyclo[3.2.1]octan-3-yl)pyrido[2,3-d]pyrimidin-7-yl)-2-methoxyphenyl methanol] | 0.21 µM | 0.89 µM
COc1ccc(-c2ccc3c(N4C5CCC4COC5)nc(N4CCOC[C@@H]4C)nc3n2)cc1CO [Compound 3, 5-(4-(3-oxa-8-azabicyclo[3.2.1]octan-8-yl)-2-((S)-3-methylmorpholine)pyrido[2,3-d]pyrimidin-7-yl)-2-methoxyphenylmethanol] | 0.11 µM | < 0.027 µM
COc1ccc(-c2ccc3c(N4C5CCC4COC5)nc(N4CCOCC4)nc3n2)cc1CO [Compound 4, 5-(4-(3-oxa-8-azabicyclo[3.2.1]octan-8-yl)-2-morpholinylpyrido[2,3-d]pyrimidin-7-yl)-2-methoxyphenylmethanol] | 0.24 µM | 0.06 µM
COc1ccc(-c2ccc3c(N4C5CCC4COC5)nc(N4C[C@@H](C)O[C@@H](C)C4)nc3n2)cc1CO [Compound 5, 5-(4-(3-oxa-8-azabicyclo[3.2.1]octan-8-yl)-2-((2S,6R)-2,6-dimethylmorpholine)pyrido[2,3-d]pyrimidin-7-yl)-2-methoxyphenylmethanol] | 0.32 µM | 0.06 µM
COCCN(C)c1nc(N2C3CCC2COC3)c2ccc(-c3ccc(OC)c(CO)c3)nc2n1 [Compound 6, 5-(4-(3-oxa-8-azabicyclo[3.2.1]octan-8-yl)-2-((2-methoxyethyl)methylamino)pyrido[2,3-d]pyrimidin-7-yl)-2-methoxyphenylmethanol] | 1.07 µM | 0.22 µM
COc1ccc(-c2ccc3c(N4C5CCC4COC5)nc(N4CC5CCC(C4)O5)nc3n2)cc1CO [Compound 7] | 0.2 µM | 0.027 µM
COc1ccc(-c2ccc3c(N4CCOC[C@@H]4C)nc(N4C5CCC4COC5)nc3n2)cc1CO [Compound 8, 5-(2-((1R,5S)-3-oxa-8-azabicyclo[3.2.1]octan-8-yl)-4-((S)-3-methylmorpholine)pyrido[2,3-d]pyrimidin-7-yl)-2-methoxyphenylmethanol] | 0.07 µM | < 0.027 µM
COc1ccc(-c2ccc3c(N4CCOCC4)nc(N4[C@@H]5CC[C@H]4COC5)nc3n2)cc1CO [Compound 9, 5-(2-((1R,5S)-3-oxa-8-azabicyclo[3.2.1]octan-8-yl)-4-morpholinylpyrido[2,3-d]pyrimidin-7-yl)-2-methoxyphenylmethanol] | 0.51 µM | 0.32 µM
COc1ccc(-c2ccc3c(N4C[C@@H](C)O[C@@H](C)C4)nc(N4C5CCC4COC5)nc3n2)cc1CO [Compound 10, 5-(2-((1R,5S)-3-oxa-8-azabicyclo[3.2.1]octan-8-yl)-4-((2S,6R)-2,6-dimethylmorpholine)pyrido[2,3-d]pyrimidin-7-yl)-2-methoxyphenylmethanol] | 23.9 µM | > 60 µM
COc1ccc(-c2ccc3c(N4CC5CCC(C4)O5)nc(N4[C@@H]5CC[C@H]4COC5)nc3n2)cc1CO [Compound 11, 5-(4-(8-oxa-3-azabicyclo[3.2.1]octan-3-yl)-2-((1R,5S)-3-oxa-8-azabicyclo[3.2.1]octan-8-yl)pyrido[2,3-d]pyrimidin-7-yl)-2-methoxyphen ylmethanol] | 0.28 µM | 0.07 µM
COc1ccc(-c2cc3nc(N4CCOCC4)nc(N4CCOCC4)c3cn2)cc1CO [Compound 13, (5-(2,4-dimorpholinylpyrido[4,3-d]pyrimidin-7-yl)-2-methoxyphenyl)methanol] | > 60 µM | 17.9 µM
COc1ccc(-c2cc3nc(N4C[C@@H](C)O[C@@H](C)C4)nc(N4CCOCC4)c3cn2)cc1CO [Compound 15] | 24.5 µM | 9.39 µM
COc1ccc(-c2cc3nc(N4CCOC[C@@H]4C)nc(N4C[C@@H](C)O[C@@H](C)C4)c3cn2)cc1CO [Compound 16, 5-(4-((2S,6R)-2,6-dimethylmorpholinyl-2-((S)-3-methylmorpholinyl)pyrido[4,3-d]pyrimidin-7-yl)-2-methoxyphenyl)methanol] | > 60 µM | > 60 µM
COc1ccc(-c2cc3nc(N4CCOC[C@@H]4C)nc(N4CCOC[C@@H]4C)c3cn2)cc1CO [Compound 18, (5-(2,4-di((S)-3-methylmorpholinyl)pyrido[4,3-d]pyrimidin-7-yl)-2-methoxyphenyl)methanol] | 2.58 µM | 1.2 µM
COc1ccc(-c2cc3nc(N4CCOCC4)nc(N4CCOC[C@@H]4C)c3cn2)cc1CO [Compound 19, (S)-(2-methoxy-5-(4-(3-methylmorpholinyl)-2-morpholinylpyrido[4,3-d]pyrimidin-7-yl)phenyl)methanol] | 14.8 µM | 2.75 µM

SMILES | IC50 [1] | IC50 [2]
COc1ccc(-c2cc3nc(N4CC5CCC(C4)O5)nc(N4CC5CCC(C4)O5)c3cn2)cc1CO [Compound 20, (5-(2,4-di(8-oxa-3-azabicyclo[3.2.1]octan-3-yl)pyrido[4,3-d]pyrimidin-7-yl)-2-methoxyphenyl)methanol] | 18.7 µM | 2.59 µM
COc1ccc(-c2cc3nc(N4CCOCC4)nc(N4CC5CCC(C4)O5)c3cn2)cc1CO [Compound 21, (5-(4-(8-oxa-3-azabicyclo[3.2.1]octan-3-yl)-2-morpholinylpyrido[4,3-d]pyrimidin-7-yl)-2-methoxyphenyl)methanol] | 12.7 µM | 6.09 µM
COc1ccc(-c2cc3nc(N4CCOC[C@@H]4C)nc(N4CC5CCC(C4)O5)c3cn2)cc1CO [Compound 22, (5-(4-(8-oxa-3-azabicyclo[3.2.1]octan-3-yl)-2-((S)-3-methylmorpholinyl)pyrido[4,3-d]pyrimidin-7-yl)-2-methoxyphenyl)methanol] | 18.4 µM | 2.29 µM
COc1ccc(-c2cc3nc(N4C5CCC4COC5)nc(N4C5CCC4COC5)c3cn2)cc1CO [Compound 23, (5-(2,4-di(3-oxa-8-azabicyclo[3.2.1]octan-8-yl)pyrido [4,3-d]pyrimidin-7-yl)-2-methoxyphenyl)methanol] | > 60 µM | > 60 µM
COc1ccc(-c2cc3nc(N4CCOCC4)nc(N4C5CCC4COC5)c3cn2)cc1CO [Compound 24, (5-(4-(1R,5S)-3-oxa-8-azabicyclo[3.2.1]octan-8-yl)-2-morpholinylpyrido[4,3-d]pyrimidin-7-yl)-2-methoxyphenyl)methanol] | 55.9 µM | > 60 µM
COc1ccc(-c2cc3nc(N4CCOC[C@@H]4C)nc(N4[C@@H]5CC[C@H]4COC5)c3cn2)cc1CO [Compound 25, (5-(4-((1R,5S)-3-oxa-8-azabicyclo[3.2.1]octan-8-yl)-2-((S)-3-methylmorpholinyl)pyrido[4,3-d]pyrimidin-7-yl)-2-methoxyphenyl)methanol] | 4.97 µM | 1.78 µM
c1ccc(-c2cc3nc(N4CCOCC4)nc(N4CCOCC4)c3cn2)cc1 [Compound 26, (4,4'-(7-phenylpyrido[4,3-d]pyrimidin-2,4-diyl)-dimorpholine)] | 6.35 µM | 2.07 µM
C[C@H]1COCCN1c1nc(N2CCOCC2)c2cnc(-c3ccccc3)cc2n1 [Compound 27] | 5.68 µM | 1.68 µM
c1ccc(-c2cc3nc(N4CC5CCC(C4)O5)nc(N4CCOCC4)c3cn2)cc1 [Compound 28, 3-(4-morpholinyl-7-phenylpyrido[4,3-d]pyrimidin-2-yl)-8-oxa-3-azabicyclo[3.2.1]octane] | 6.44 µM | 4.2 µM
C[C@H]1COCCN1c1nc(N2CCOCC2)nc2cc(-c3ccccc3)ncc12 [Compound 29, (S)-3-methyl-4-(2-morpholinyl-7-phenylpyrido [4,3-d]pyrimidin-4-yl)morpholine] | 2.29 µM | 0.829 µM
C[C@H]1COCCN1c1nc(N2CCOC[C@@H]2C)c2cnc(-c3ccccc3)cc2n1 [Compound 30, (3S,3'S)-4,4'-(7-phenylpyrido[4,3-d]pyrimidin-2,4-diyl)-di(3-methylmorpholine)] | 1.14 µM | 0.361 µM
C[C@H]1COCCN1c1nc(N2CC3CCC(C2)O3)nc2cc(-c3ccccc3)ncc12 [Compound 31, 3-(4-((S)-3-methylmorpholinyl)-7-phenylpyrido[4,3-d]pyrimidin-2-yl)-8-oxa-3-azabicyclo[3.2.1]octane] | 1.39 µM | 0.423 µM
c1ccc(-c2ncc3c(N4CCOCC4)nc(N4CCOCC4)nc3n2)cc1 [Compound 32, 4,4'-(7-phenylpyrimido[4,5-d]pyrimidin-2,4-diyl)-dimorpholine] | 20.4 µM | 6.71 µM
C[C@H]1COCCN1c1nc(N2CCOC[C@@H]2C)c2cnc(-c3ccccc3)nc2n1 [Compound 33, (3S,3'S)-4,4'-(7-phenylpyrimido[4,5-d]pyrimidin-2,4-diyl)-di(3-methylmorpholine)] | 17.7 µM | 2.03 µM
c1ccc(-c2ncc3c(N4CC5CCC(C4)O5)nc(N4CC5CCC(C4)O5)nc3n2)cc1 [Compound 34, 3,3'-(7-phenylpyrimido[4,5-d]pyrimidin-2,4-diyl)-di(8-oxa-3-azabicyclo[3.2.1]octane)] | 9.32 µM | 0.99 µM
